What all share (experiment): [3H]TBZOH Binding Assay
Common to all, as to settings: pH 7.5; 25 °C

Chains of the proteins cited; added tags and fusions are not shown.
UniProt Q01827, whole entry: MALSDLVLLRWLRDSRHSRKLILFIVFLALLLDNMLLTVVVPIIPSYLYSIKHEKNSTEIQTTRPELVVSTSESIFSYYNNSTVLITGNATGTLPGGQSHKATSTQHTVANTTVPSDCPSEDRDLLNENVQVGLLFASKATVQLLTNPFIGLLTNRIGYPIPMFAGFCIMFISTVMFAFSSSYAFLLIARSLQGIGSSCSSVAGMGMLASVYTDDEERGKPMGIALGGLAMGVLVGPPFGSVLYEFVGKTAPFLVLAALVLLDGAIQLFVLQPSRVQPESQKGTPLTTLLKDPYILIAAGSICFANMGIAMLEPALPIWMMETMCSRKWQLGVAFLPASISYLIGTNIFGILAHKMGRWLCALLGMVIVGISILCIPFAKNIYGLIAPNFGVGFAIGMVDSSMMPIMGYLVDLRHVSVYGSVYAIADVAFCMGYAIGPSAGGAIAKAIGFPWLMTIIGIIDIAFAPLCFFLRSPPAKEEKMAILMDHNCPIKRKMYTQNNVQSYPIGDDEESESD
UniProt Q01827, whole entry V132G: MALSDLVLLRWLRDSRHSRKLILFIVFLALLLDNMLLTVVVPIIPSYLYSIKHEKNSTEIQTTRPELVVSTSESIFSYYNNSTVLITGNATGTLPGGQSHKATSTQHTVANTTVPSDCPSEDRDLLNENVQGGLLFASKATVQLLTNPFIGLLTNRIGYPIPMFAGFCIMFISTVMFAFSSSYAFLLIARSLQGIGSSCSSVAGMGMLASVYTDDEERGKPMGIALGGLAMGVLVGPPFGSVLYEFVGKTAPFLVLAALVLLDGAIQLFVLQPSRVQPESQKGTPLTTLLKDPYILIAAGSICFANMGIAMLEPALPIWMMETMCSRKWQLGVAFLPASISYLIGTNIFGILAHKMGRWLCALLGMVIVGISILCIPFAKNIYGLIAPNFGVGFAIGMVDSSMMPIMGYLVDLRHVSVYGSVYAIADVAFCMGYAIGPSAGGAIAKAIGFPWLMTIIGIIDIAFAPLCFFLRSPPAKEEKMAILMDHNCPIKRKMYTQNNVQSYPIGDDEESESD
UniProt Q01827, whole entry V132A: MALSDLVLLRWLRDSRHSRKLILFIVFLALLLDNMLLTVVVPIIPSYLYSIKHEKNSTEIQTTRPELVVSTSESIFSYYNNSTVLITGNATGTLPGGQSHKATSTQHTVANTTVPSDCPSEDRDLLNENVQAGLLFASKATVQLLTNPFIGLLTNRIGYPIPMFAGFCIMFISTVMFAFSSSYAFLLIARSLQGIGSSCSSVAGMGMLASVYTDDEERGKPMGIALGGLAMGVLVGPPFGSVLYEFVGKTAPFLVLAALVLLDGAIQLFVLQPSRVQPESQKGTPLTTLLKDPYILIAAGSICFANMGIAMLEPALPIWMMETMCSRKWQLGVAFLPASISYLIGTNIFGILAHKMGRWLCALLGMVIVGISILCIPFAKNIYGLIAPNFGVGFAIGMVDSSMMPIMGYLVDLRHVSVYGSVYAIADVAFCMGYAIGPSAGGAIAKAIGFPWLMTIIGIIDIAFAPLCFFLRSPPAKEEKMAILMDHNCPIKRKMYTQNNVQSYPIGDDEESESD
UniProt Q01827, whole entry P314T: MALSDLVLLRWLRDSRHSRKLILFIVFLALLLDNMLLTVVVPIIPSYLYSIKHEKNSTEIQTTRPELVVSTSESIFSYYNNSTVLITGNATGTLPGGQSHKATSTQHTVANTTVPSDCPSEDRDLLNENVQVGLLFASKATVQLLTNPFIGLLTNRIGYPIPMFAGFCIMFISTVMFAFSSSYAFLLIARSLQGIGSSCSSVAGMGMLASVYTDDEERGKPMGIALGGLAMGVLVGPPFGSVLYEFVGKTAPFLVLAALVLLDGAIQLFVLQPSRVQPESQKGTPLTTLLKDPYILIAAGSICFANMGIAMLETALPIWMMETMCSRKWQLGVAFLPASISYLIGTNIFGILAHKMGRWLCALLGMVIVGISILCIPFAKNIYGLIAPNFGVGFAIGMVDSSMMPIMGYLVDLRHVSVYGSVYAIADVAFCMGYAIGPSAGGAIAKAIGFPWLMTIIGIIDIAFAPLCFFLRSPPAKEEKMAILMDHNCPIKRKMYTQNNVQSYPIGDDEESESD
UniProt Q01827, whole entry V41F: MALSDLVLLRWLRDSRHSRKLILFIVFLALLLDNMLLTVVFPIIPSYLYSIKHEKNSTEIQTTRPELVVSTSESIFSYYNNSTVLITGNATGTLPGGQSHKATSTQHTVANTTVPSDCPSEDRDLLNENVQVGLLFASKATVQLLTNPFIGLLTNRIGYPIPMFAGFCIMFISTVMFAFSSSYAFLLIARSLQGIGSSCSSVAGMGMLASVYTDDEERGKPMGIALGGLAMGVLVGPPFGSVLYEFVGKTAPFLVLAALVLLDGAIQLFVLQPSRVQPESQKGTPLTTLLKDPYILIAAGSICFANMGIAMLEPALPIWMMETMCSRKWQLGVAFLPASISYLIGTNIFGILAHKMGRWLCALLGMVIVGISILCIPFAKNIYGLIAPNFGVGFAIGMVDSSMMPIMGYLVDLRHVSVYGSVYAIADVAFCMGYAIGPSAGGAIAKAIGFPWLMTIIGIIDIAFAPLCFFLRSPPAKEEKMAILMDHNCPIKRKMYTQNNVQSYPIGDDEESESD
UniProt Q01827, whole entry G308A: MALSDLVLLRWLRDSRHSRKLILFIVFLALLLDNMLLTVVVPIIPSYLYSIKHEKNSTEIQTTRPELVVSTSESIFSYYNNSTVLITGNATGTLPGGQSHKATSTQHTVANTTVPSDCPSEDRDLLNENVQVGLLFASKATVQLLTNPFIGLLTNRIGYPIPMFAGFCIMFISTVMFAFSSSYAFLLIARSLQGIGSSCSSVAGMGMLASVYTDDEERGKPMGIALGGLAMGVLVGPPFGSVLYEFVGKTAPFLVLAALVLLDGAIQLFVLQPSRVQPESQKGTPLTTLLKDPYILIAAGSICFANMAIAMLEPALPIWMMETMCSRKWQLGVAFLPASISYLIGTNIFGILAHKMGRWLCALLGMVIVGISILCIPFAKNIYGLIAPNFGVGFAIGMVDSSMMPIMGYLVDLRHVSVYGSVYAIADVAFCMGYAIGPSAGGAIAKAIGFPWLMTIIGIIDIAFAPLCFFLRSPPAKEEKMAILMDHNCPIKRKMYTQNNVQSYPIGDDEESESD
UniProt Q01827, whole entry V41A: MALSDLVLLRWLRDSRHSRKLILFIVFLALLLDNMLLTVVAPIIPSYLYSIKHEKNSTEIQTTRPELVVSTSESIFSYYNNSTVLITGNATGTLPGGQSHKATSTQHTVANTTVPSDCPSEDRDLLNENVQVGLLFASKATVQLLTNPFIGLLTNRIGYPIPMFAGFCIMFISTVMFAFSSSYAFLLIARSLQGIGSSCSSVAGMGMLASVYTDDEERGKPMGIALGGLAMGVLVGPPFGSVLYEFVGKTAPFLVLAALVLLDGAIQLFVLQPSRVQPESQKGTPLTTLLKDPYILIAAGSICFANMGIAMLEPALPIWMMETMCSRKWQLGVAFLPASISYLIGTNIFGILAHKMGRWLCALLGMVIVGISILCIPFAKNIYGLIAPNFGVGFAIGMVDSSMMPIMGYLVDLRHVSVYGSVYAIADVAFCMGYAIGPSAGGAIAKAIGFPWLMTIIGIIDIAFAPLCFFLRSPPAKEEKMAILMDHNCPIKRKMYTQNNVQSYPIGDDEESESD
UniProt Q01827, whole entry V41I: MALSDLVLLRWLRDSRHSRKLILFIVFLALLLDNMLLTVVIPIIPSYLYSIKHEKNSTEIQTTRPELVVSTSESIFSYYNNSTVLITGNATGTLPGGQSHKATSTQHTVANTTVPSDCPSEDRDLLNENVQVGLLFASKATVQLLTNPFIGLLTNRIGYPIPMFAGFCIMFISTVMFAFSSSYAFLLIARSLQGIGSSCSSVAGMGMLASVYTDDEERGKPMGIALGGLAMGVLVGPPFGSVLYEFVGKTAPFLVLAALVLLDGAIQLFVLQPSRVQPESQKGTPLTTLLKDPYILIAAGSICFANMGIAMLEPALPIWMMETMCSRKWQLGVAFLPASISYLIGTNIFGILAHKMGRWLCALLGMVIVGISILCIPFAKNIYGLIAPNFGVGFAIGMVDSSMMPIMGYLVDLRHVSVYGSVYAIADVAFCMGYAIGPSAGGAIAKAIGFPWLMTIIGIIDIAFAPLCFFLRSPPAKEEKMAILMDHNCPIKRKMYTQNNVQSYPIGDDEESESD
UniProt Q01827, whole entry P314L: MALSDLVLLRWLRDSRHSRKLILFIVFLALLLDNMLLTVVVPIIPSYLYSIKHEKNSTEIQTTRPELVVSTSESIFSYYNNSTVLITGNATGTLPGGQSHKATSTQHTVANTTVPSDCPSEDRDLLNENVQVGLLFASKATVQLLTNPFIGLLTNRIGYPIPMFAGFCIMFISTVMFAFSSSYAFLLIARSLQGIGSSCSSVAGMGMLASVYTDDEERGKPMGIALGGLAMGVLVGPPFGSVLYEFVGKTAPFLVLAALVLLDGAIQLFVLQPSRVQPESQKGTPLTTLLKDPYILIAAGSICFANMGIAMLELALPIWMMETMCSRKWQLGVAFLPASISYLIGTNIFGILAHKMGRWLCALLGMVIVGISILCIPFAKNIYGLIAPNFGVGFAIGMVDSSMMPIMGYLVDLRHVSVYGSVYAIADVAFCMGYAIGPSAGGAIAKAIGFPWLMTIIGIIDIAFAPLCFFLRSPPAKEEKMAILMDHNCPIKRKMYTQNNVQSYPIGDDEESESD
UniProt Q01827, whole entry G308P: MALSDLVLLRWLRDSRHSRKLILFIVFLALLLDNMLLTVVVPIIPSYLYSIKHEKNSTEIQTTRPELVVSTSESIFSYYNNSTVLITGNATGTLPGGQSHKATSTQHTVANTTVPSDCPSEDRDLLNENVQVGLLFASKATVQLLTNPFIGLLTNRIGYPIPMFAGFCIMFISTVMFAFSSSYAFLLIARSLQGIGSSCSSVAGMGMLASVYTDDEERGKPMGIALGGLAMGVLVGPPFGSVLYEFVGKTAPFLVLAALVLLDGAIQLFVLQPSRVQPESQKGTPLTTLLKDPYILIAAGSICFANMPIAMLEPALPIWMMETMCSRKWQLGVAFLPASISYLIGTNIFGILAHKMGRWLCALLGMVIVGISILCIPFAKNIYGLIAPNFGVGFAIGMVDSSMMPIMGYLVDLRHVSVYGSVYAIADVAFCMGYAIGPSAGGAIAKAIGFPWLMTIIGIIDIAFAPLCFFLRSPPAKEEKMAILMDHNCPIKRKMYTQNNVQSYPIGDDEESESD
UniProt Q01827, whole entry P314G: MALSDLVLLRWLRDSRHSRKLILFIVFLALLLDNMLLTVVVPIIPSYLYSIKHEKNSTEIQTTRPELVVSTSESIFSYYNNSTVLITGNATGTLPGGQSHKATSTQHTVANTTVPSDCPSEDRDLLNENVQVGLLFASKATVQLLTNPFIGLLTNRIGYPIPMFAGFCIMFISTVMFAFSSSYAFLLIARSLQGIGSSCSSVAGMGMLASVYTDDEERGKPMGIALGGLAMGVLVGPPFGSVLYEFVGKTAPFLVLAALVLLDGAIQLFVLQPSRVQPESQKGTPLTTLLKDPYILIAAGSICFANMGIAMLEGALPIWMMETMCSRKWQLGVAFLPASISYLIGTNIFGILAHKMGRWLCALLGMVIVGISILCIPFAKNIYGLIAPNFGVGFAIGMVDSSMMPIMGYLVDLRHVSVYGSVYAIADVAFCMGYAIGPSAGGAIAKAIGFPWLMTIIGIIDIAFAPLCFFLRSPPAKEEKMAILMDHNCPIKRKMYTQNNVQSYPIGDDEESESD

Test [1] deals with Synaptic vesicular amine transporter (Rattus norvegicus, UniProt Q01827).
Test [2] addresses Synaptic vesicular amine transporter [V132G] (Rat, UniProt Q01827, V132G).
Test [3] addresses Synaptic vesicular amine transporter [V132A] (Rat, UniProt Q01827, V132A).
Test [4] has as its target Synaptic vesicular amine transporter [P314T] (Rat, UniProt Q01827, P314T).
For test [5], the target named is Synaptic vesicular amine transporter [V41F] (Rat, UniProt Q01827, V41F).
In test [6] the target is Synaptic vesicular amine transporter [G308A] (Rat, UniProt Q01827, G308A).
The target in test [7] is Synaptic vesicular amine transporter [V41A] (Rat, UniProt Q01827, V41A).
The target in test [8] is Synaptic vesicular amine transporter [V41I] (Rat, UniProt Q01827, V41I).
Test [9] deals with Synaptic vesicular amine transporter [P314L] (Rat, UniProt Q01827, P314L).
The target of test [10] is Synaptic vesicular amine transporter [G308P] (Rat, UniProt Q01827, G308P).
Test [11] addresses Synaptic vesicular amine transporter [P314G] (Rat, UniProt Q01827, P314G).

Bounds are passed on as bounds.

In general, IC50 refers to the point on the concentration scale where inhibition reaches its midpoint. The Kd is the free concentration of one partner at which half of the binding sites on the other are occupied at equilibrium, for simple one-to-one binding. Higher therefore signals lower affinity. In the case of `COc1cc2c(cc1OC)C1CC(=O)C(CC(C)C)CN1CC2` (configuration not stated) [3-Isobutyl-9,10-dimethoxy-1,3,4,6,7,11b-hexahydro-pyrido[2,1-a]isoquinolin-2-one], the IC50 in [1] was 8.3 nM; in test [4] it was above 200 nM; in test [6], above 200 nM; in test [9], above 200 nM; in test [10] it was 14.5 nM; in test [11], above 200 nM. Also, the Kd in [1] is 5.2 nM; in test [2], above 100 nM; in test [3], 63.4 nM; in test [4], above 100 nM; in test [5] it was above 100 nM; in [6], above 100 nM. In addition, the Kd was 16 nM in test [7]; 4 nM in test [8]; above 100 nM in test [9]; 2 nM in test [10]; above 100 nM in test [11].

Source of the values: BindingDB's records for doi:10.1074/jbc.M113.502971 (Hebrew University of Jerusalem, 2013).
